For experiment [1], the system named is Pseudomonas caryophylli NCPPB 349. The settings on record: strain NCPPB 349, 24 ± 48 h at 25 or 37 °C, triplicate.
Experiment [2] deals with Pseudomonas syringae pv. panici ICMP3955. Conditions: strain ICMP3955, 24 ± 48 h at 25 or 37 °C, triplicate.
Experiment [3] relates to Pseudomonas syringae pv. tabaci ICMP2706. Conditions: strain ICMP2706, 24 ± 48 h at 25 or 37 °C, triplicate.
Experiment [4] has as its system Pseudomonas syringae pv. syringae B475. Conditions: strain B475, 24 ± 48 h at 25 or 37 °C, triplicate.
Experiment [5] deals with Pseudomonas syringae pv. japonica ICMP6305. Conditions: strain ICMP6305, 24 ± 48 h at 25 or 37 °C, triplicate.
Another experiment concerns Bacillus subtilis PY79. The settings on record: strain PY79, 24 ± 48 h at 25 or 37 °C, triplicate.
The test system of the next experiment is Bacillus megaterium QMB. The settings on record: strain QMB, 24 ± 48 h at 25 or 37 °C, triplicate.
The subject of experiment [6] is Colletotrichum truncatum 17-5-5. The settings on record: strain 17-5-5; cyclic dipeptides, serial dilutions from 10 to 1000 μg/mL, potato dextrose broth, 24-well plates, 28 °C, 7 days; lowest concentration with no visible growth; triplicate.
In another experiment the test system is Escherichia coli DH5α. Conditions: strain DH5α; cyclic dipeptides, 10 μL drops of serial dilutions from 10 to 1000 μg/mL on LB soft agar; 24 ± 48 h at 25 or 37 °C; triplicate.
[7] abbreviates: lipodepsipeptides, 10 μL drops of serial dilutions from 0.1 to 1 μg/mL on LB soft agar.
Setting [8] is: cyclic dipeptides, 10 μL drops of serial dilutions from 10 to 1000 μg/mL on LB soft agar.

As usually defined, the MIC is the least concentration at which growth counts as inhibited. A high value points to a less susceptible organism.

Values after ≈ are worked out from the molar mass of the structure shown. Read-outs that look alike come from different tables or passages of the source. Where a SMILES comes first, the peptide text is derived from it. Bridges are numbered along the chain shown (N, C = ends). [ ]: non-standard residue; d: D form. The star is where a group is joined. ξ: configuration not given here. d(aThr) = C[C@@H](O)[C@@H](N)C(=O)O; Octanoyl(3-OH) = CCCCCC(O)CC(=O)*; X1 = CCCCCC(CC(=O)*)OC(C)=O; dDab = NCC[C@@H](N)C(=O)O; hSer = N[C@@H](CCO)C(=O)O; ξQ = NC(=O)CCC(N)C(=O)O; Dhb = C/C=C(\N)C(=O)O; ξL = CC(C)CC(N)C(=O)O; ξDab = NCCC(N)C(=O)O; ξK = NCCCCC(N)C(=O)O; ξT = CC(O)C(N)C(=O)O; ξV = CC(C)C(N)C(=O)O; ξAbu = CCC(N)C(=O)O; ξP = O=C(O)C1CCCN1; ξS = NC(CO)C(=O)O

For the compound `C/C=C(\NC(=O)[C@H](NC(=O)[C@H](CC(C)C)NC(=O)[C@@H](CCC(N)=O)NC(=O)[C@@H](NC(=O)[C@H](NC(=O)[C@@H](CC(C)C)NC(=O)[C@@H](CO)NC(=O)[C@H](NC(=O)[C@@H](CC(C)C)NC(=O)[C@@H](CO)NC(=O)[C@H]1CCCN1C(=O)/C(=C/C)NC(=O)CC(O)CCCCC)C(C)C)C(C)C)C(C)C)C(C)C)C(=O)N[C@H]1C(=O)N[C@@H]([C@@H](C)CC)C(=O)N[C@@H](CCO)C(=O)N[C@H](CCN)C(=O)N[C@@H](CCCCN)C(=O)O[C@@H]1C` (stereo partly drawn) [compound 1, tolaasin I] ({Octanoyl(3-OH)}-[Dhb][dP][dS][dL][dV][dS][dL][dV]V[dQ]L[dV][Dhb][d(aThr)]I[hSer][dDab]K; ester 14-C), the MIC in [1] (setting [7]) is 0.2 µg/mL (≈ 0.101 µM); in experiment [2] (setting [7]), 0.2 µg/mL (≈ 0.101 µM); in experiment [3] (setting [7]), 0.3 µg/mL (≈ 0.151 µM); in [4] (setting [7]) it was 0.3 µg/mL (≈ 0.151 µM); in experiment [5] (setting [7]) it was 0.3 µg/mL (≈ 0.151 µM); in the experiment with Bacillus subtilis PY79 (setting [7]) it was 0.3 µg/mL (≈ 0.151 µM). Besides, in the experiment on Bacillus megaterium QMB (setting [7]), the MIC was determined as 0.3 µg/mL (≈ 0.151 µM).
For `C/C=C(\NC(=O)C(NC(=O)C(CC(C)C)NC(=O)C(CCC(N)=O)NC(=O)C(NC(=O)C(NC(=O)C(CC(C)C)NC(=O)C(CO)NC(=O)C(NC(=O)C(CC(C)C)NC(=O)C(CO)NC(=O)C1CCCN1C(=O)/C(=C/C)NC(=O)CC(O)CCCCC)C(C)C)C(C)C)C(C)C)C(C)C)C(=O)NC1C(=O)N[C@@H](CC(C)C)C(=O)N[C@@H](CCO)C(=O)NC(CCN)C(=O)NC(CCCCN)C(=O)OC1C` (stereo partly drawn) [compound 7, tolaasin D] ({Octanoyl(3-OH)}-[Dhb][ξP][ξS][ξL][ξV][ξS][ξL][ξV][ξV][ξQ][ξL][ξV][Dhb][ξT]L[hSer][ξDab][ξK]; ester 14-C), the MIC in experiment [1] (setting [7]) came out at 0.1 µg/mL (≈ 0.0503 µM); in experiment [2] (setting [7]), 0.1 µg/mL (≈ 0.0503 µM); in experiment [3] (setting [7]), 0.1 µg/mL (≈ 0.0503 µM); in experiment [4] (setting [7]), 0.1 µg/mL (≈ 0.0503 µM); in experiment [5] (setting [7]), 0.1 µg/mL (≈ 0.0503 µM); with Bacillus subtilis PY79 (setting [7]) it was 0.2 µg/mL (≈ 0.101 µM). This compound also displayed an MIC against Bacillus megaterium QMB (setting [7]) of 0.2 µg/mL (≈ 0.101 µM).
Turning to `O=C1N[C@@H](Cc2ccc(O)cc2)C(=O)N2CCC[C@@H]12` [compound 9, cyclo(L-Pro-L-Tyr)], the MIC in experiment [1] (setting [8]) was found to be 15 µg/mL (≈ 57.6 µM); in experiment [2] (setting [8]) it was 15 µg/mL (≈ 57.6 µM); in experiment [3] (setting [8]) it was 15 µg/mL (≈ 57.6 µM); in experiment [4] (setting [8]), 15 µg/mL (≈ 57.6 µM); in experiment [5] (setting [8]), 15 µg/mL (≈ 57.6 µM); against Bacillus subtilis PY79 (setting [8]) it was 20 µg/mL (≈ 76.8 µM). Moreover, the MIC (against Bacillus megaterium QMB (setting [8]); in experiment [6]) was 20 µg/mL (≈ 76.8 µM) throughout.
Take `CC(C)C[C@@H]1NC(=O)[C@@H]2CCCN2C1=O` [compound 13, cyclo(L-Pro-L-Leu)]: the MIC came out at 500 µg/mL (≈ 2380 µM) in experiment [1] (setting [8]); 700 µg/mL (≈ 3330 µM) in experiment [2] (setting [8]); 500 µg/mL (≈ 2380 µM) in [3] (setting [8]); 600 µg/mL (≈ 2850 µM) in experiment [4] (setting [8]); 600 µg/mL (≈ 2850 µM) in [5] (setting [8]); 500 µg/mL (≈ 2380 µM) in experiment [6].
`O=C1N[C@@H](Cc2ccc(O)cc2)C(=O)N2CCC[C@H]12` [compound 14, cyclo(D-Pro-L-Tyr)]: the minimum inhibitory concentration (MIC) in experiment [1] (setting [8]) came to 800 µg/mL (≈ 3070 µM); in experiment [2] (setting [8]) it was 900 µg/mL (≈ 3460 µM); in experiment [3] (setting [8]), 800 µg/mL (≈ 3070 µM); in experiment [4] (setting [8]), 800 µg/mL (≈ 3070 µM); in experiment [5] (setting [8]), 800 µg/mL (≈ 3070 µM); against Bacillus subtilis PY79 (setting [8]) it was 35 µg/mL (≈ 134 µM). Moreover, the MIC was found to be 30 µg/mL (≈ 115 µM) in the experiment with Bacillus megaterium QMB (setting [8]), 20 µg/mL (≈ 76.8 µM) against Escherichia coli DH5α and 800 µg/mL (≈ 3070 µM) in [6].
Consider `C/C=C(\NC(=O)[C@H](NC(=O)[C@H](CC(C)C)NC(=O)[C@@H](CCC(N)=O)NC(=O)[C@@H](NC(=O)[C@H](NC(=O)[C@@H](CC(C)C)NC(=O)[C@@H](COC(C)=O)NC(=O)[C@H](NC(=O)[C@@H](CC(C)C)NC(=O)[C@@H](COC(C)=O)NC(=O)[C@H]1CCCN1C(=O)/C(=C/C)NC(=O)CC(CCCCC)OC(C)=O)C(C)C)C(C)C)C(C)C)C(C)C)C(=O)N[C@H]1C(=O)N[C@@H]([C@@H](C)CC)C(=O)N[C@@H](CCOC(C)=O)C(=O)N[C@H](CCNC(C)=O)C(=O)N[C@@H](CCCCNC(C)=O)C(=O)O[C@@H]1C` (stereo partly drawn) [compound 15, hexacetyl tolaasin I] (X1-[Dhb][dP][dS](Ac)[dL][dV][dS](Ac)[dL][dV]V[dQ]L[dV][Dhb][d(aThr)]I[hSer](Ac)[dDab](Ac)K(Ac); ester 14-C), for which the MIC is 0.9 µg/mL (≈ 0.402 µM) in experiment [1] (setting [7]); 0.7 µg/mL (≈ 0.313 µM) in experiment [2] (setting [7]); 0.8 µg/mL (≈ 0.357 µM) in experiment [3] (setting [7]); 0.8 µg/mL (≈ 0.357 µM) in experiment [4] (setting [7]); 0.7 µg/mL (≈ 0.313 µM) in experiment [5] (setting [7]).
In the case of `CCCCCC(O)CC(=O)NC(CC)C(=O)N1CCC[C@@H]1C(=O)N[C@H](CO)C(=O)N[C@H](CC(C)C)C(=O)N[C@@H](C(=O)N[C@H](CO)C(=O)N[C@H](CC(C)C)C(=O)N[C@@H](C(=O)N[C@H](C(=O)N[C@H](CCC(N)=O)C(=O)N[C@@H](CC(C)C)C(=O)N[C@@H](C(=O)NC(CC)C(=O)N[C@H]1C(=O)N[C@@H]([C@@H](C)CC)C(=O)N[C@@H](CCO)C(=O)N[C@H](CCN)C(=O)N[C@@H](CCCCN)C(=O)O[C@@H]1C)C(C)C)C(C)C)C(C)C)C(C)C` (stereo partly drawn) [compound 16, tetrahydro tolaasin I] ({Octanoyl(3-OH)}-[ξAbu][dP][dS][dL][dV][dS][dL][dV]V[dQ]L[dV][ξAbu][d(aThr)]I[hSer][dDab]K; ester 14-C), the minimal inhibitory concentration (MIC) in experiment [1] (setting [7]) amounted to 0.9 µg/mL (≈ 0.452 µM); in experiment [2] (setting [7]), 0.9 µg/mL (≈ 0.452 µM); in experiment [3] (setting [7]), 0.8 µg/mL (≈ 0.402 µM); in experiment [4] (setting [7]), 0.8 µg/mL (≈ 0.402 µM); in experiment [5] (setting [7]) it was 0.9 µg/mL (≈ 0.452 µM); against Bacillus subtilis PY79 (setting [7]) it was 0.2 µg/mL (≈ 0.1 µM). In the experiment on Bacillus megaterium QMB (setting [7]), this compound showed an MIC of 0.2 µg/mL (≈ 0.1 µM).
Consider WLIP methyl ester [WILP methyl ester], for which the MIC against Bacillus subtilis PY79 (setting [7]) and with Bacillus megaterium QMB (setting [7]) was 0.5 µg/mL throughout.

Source of the values: article PMC9026286, “Bacterial Lipodepsipeptides and Some of Their Derivatives and Cyclic Dipeptides as Potential Agents for Biocontrol of Pathogenic Bacteria and Fungi of Agrarian Plants” (Journal of Agricultural and Food Chemistry, 2022).
